For the assay, the system named is Hepatocyte spheroids. As to the kind of experiment: Cell viability is assessed by cellular ATP assay using CellTiter-Glo Luminescent kit. Viability is expressed as average RLU from biological replicates and normalized to negative control.Toxicity is defined as those with normalized ATP significantly less than 80 percent of the negative control. The assay is classed as functional, Homo sapiens. Set-up: unit not given here. On the technique in general: Cellular ATP, detected with luciferase, serves as a proxy for viable cell number.

Compound `O=C(c1ccc(C(=O)N2CCC(N3CCCC3)CC2)c(Nc2ccccc2)c1)N1CCC(N2CCCC2)CC1` gave a Proliferation (Concentration range 5nM-5uM) of 0.005005. In the case of `CCOC(=O)CCNc1cc(N2CCc3ccccc3CC2)nc(-c2ccccn2)n1`, where the note is “Concentration range 10nM-10uM”, the Proliferation is given as 0.01732. Regarding `CCCc1cc(C)[nH]c(=O)c1CNC(=O)c1cc(-c2ccc(N3CCN(C(C)C)CC3)nc2)cc2c1cnn2C(C)C`, for the setting “Concentration range 5nM-5uM”, the Proliferation turned out to be 0.0247. As for `CC(C)NC(=O)N1CC[C@H](NC2=Nc3cc(F)ccc3N(CC(F)F)c3ccc(Cl)cc32)C1`, the Proliferation turned out to be 0.3239. The compound `CCCS(=O)(=O)c1nc(NC2CC2)cc(-c2ccc3c(ccn3C3CC(C)(C)NC(C)(C)C3)c2)n1` gave a Proliferation (Concentration range 10nM-10uM) of 0.068.

For the origin of these results see ChEMBL document CHEMBL5724564, “Patient-derived NASH model to assess the effects of chemical probes on hepatocyte regenerations” (2024).
